The source of these data is PubChem BioAssay AID1415 (NMMLSC, 2008).

Sequences of proteins named here, by UniProt entry; tags and fusion partners are left off.
UniProt P09471, whole entry, looked up: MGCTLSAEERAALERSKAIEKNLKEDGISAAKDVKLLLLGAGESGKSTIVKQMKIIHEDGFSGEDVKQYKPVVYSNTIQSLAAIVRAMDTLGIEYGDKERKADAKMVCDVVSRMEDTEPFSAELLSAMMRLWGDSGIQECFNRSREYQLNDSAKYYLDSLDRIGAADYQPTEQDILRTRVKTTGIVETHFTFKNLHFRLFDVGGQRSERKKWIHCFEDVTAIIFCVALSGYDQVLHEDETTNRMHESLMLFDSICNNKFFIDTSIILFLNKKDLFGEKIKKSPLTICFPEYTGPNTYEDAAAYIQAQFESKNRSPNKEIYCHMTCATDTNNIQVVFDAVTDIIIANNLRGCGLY

The list shows a part of the results, in another mix than the full data. Calls of active or inactive are those of the source. Cut-off read from the data, not from the text of the source: active = binding response below about 49% or above about 150%; inactive = in between.

The target of the assay is Guanine nucleotide-binding protein G(o) subunit alpha (Homo sapiens) (UniProt P09471). The assay is described as follows: modulators of RGS4 binding to Galphao, primary screen, biochemical, multiplexed bead flow cytometry (AID 1415).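 Note: fluorescent Galphao activated with aluminum fluoride binding bead-coupled RGS4.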 The conditions noted are these: at 10 µM, actives lie on both sides. In general terms: A flow cytometer gives signals particle by particle.
Consider `O=P1(Nc2ccccn2)COc2ccccc2OC1`, for which the binding response (% of control) was inactive: 100%. `CCOP(=O)(Nc1ccc(C)cn1)OCC`: the binding response (% of control) was inactive: 96.3%.

For `Clc1n[nH]nc1-c1nn[nH][15n]1`, the binding response (% of control) is inactive: 96.9%. With `CC(C)(C)C(=O)NC(Sc1ncccn1)C(Cl)(Cl)Cl` (centres undefined) the figure was inactive: 98.2%.

As to `Nc1cccc2c([As](=O)(O)O)cccc12`, the binding response (% of control) is active: 18.1%.

Consider `Cc1ccc(NCCc2c([N+](=O)[O-])cc([N+](=O)[O-])cc2[N+](=O)[O-])cc1`, for which the binding response (% of control) is inactive: 93.7%. With `CCCOP(=S)(Nc1nc(N)cc(=O)[nH]1)OCCC` the figure was inactive: 99.6%; with `COc1cc(C2NCCC3(OCCO3)C2(C)C)cc(OC)c1OC` (centres undefined), inactive: 109%; with `CCOP(=O)(Nc1cccc2ccccc12)OCC`, inactive: 101%. For the compound `O=C(OC1CN2CCC1CC2)c1ccc(Cl)cc1` (centres undefined), the binding response (% of control) was inactive: 96.8%.

On to `O=[As](O)(O)c1cccnc1`, for which the binding response (% of control) was inactive: 103%.

Take `COc1cc(C(=O)NCC2(N3CCOCC3)CCCCC2)cc(Cl)c1OC(C)C`: the binding response (% of control) is inactive: 104%.

For the compound `Cc1cccc(OCC(=O)OC2CN3CCC2CC3)c1` (centres undefined), the binding response (% of control) was inactive: 98.3%. With `O=[As](O)(c1cccc(O)c1)c1cccc(O)c1` the figure was inactive: 105%; with `NC(=O)Nc1ccc([As](=O)(O)O)cc1`, inactive: 101%; with `CN(C(=O)Cc1ccccc1)[C@@H]1CC[C@]2(CCCO2)C[C@H]1N1CCCC1`, inactive: 77.8%. The result for `CCOP1(=S)c2c(C)nn(CCC#N)c2N=C(c2ccc(F)cc2)N1C` (centres undefined) reads inactive: 105%. `O=[N+]([O-])c1ccc2c(c1)nnn2O`: the binding response (% of control) was inactive: 117%.

As for `CCOP1(=S)c2c(C)nn(CCC#N)c2N=C(c2ccccc2F)N1C` (centres undefined), the binding response (% of control) was inactive: 102%.

As for `O=P(Nc1nccs1)(Oc1ccccc1)Oc1ccccc1`, the binding response (% of control) was inactive: 92.8%.

On to `O=P(Nc1nccs1)(c1ccccc1)c1nc2ccccc2s1` (centres undefined), for which the binding response (% of control) is inactive: 100%. As to `CS(=O)(=O)c1cc([N+](=O)[O-])c2no[n+]([O-])c2c1`, the binding response (% of control) was inactive: 87.5%. With `O=C(O)COc1ccc([As](=O)(O)O)cc1[N+](=O)[O-]` the figure was inactive: 99.8%. Take `Nc1ccccc1[As](=O)(O)c1ccccc1`: the binding response (% of control) is inactive: 105%.
